Curated experimental data: logP (octanol/water) values

Data: OPERA 2.9 data sets, kmansouri/OPERA on GitHub.

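The numbers are reported measurements, compiled and curated for the OPERA QSAR suite. One number stands for a compound and property, with no spread given. Method and conditions are not stated for these values. A value may pool stereoisomers or salt forms, and the file does not say which form was measured. Some entries may be limits or estimates that an upstream database listed as plain numbers.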

The octanol-water partition coefficient is given as log10; larger values mean a more lipophilic compound. "via" names the databases from which the curators took the value.

CC(=O)OCC[N+](C)(C)C.[Br-] is reported with logP -3.61 (via OCHEM).
CC(C)(C)c1ccc(C2=C3C(=O)NC(c4ccc(C(C)(C)C)cc4)=C3C(=O)N2)cc1 is reported with logP 5 (via eChemPortal).
Clc1ccc2cncnc2c1 is reported with logP 1.74 (via OCHEM).
N#Cc1ccc(O)c(O)c1 is reported with logP 1.3 (via eChemPortal).
C[C@]12CCC(=O)C=C1CC[C@@H]1[C@@H]2[C@@H](O)C[C@@]2(C)[C@H]1CC[C@]2(O)C(=O)COC(=O)CCC(=O)O is reported with logP 2.11 (via OCHEM).
C[C@H](Cn1cnc2c(N)ncnc21)OCP(=O)(O)O is reported with logP -1.6 (via PubChem).
CCN(CC)c1ccc(C(=C2C=CC(=[N+](CC)Cc3cccc(S(=O)(=O)O)c3)C=C2C)c2ccc(N(CC)Cc3cccc(S(=O)(=O)[O-])c3)cc2C)cc1.[Na+] is reported with logP -2.49 (via eChemPortal).
CN(CCC#N)c1ccc(/C=C/C2=[N+](C)c3ccccc3C2(C)C)cc1.O=S(=O)([O-])O is reported with logP -3.15 (via eChemPortal).
CC(=O)[O-].CCN(CC)c1ccc(C(=C2C=CC(=[N+](CC)CC)C=C2)c2ccccc2)cc1 is reported with logP 3.757 (via eChemPortal).
CCn1c(O)c(/N=N/c2cc(Nc3nc(Cl)nc(Nc4ccc(S(=O)(=O)CCOS(=O)(=O)[O-])cc4)n3)ccc2S(=O)(=O)[O-])c(C)c(C(N)=O)c1=O.[Na+].[Na+] is reported with logP -6 (via eChemPortal).
Cc1cc(=O)n2ccccc2n1 is reported with logP 0.57 (via OCHEM).
Nc1nc2c(ncn2[C@H]2C[C@H](O)[C@@H](CO)O2)c(=O)[nH]1 is reported with logP -1.3 (via OCHEM).
CCCCCC[N+](C)(C)C.[I-] is reported with logP -1.84 (via OCHEM).
Clc1cc(Cl)c(Cl)c(-c2cccc(Cl)c2Cl)c1 is reported with logP 6.26 (via OCHEM).
COc1ccccc1N1CCN(CCNC(=O)c2cccs2)CC1 is reported with logP 2 (via OCHEM).
NC(=O)C1=CN(C2OC(COP(=O)([O-])OP(=O)([O-])OCC3OC(n4cnc5c(N)ncnc54)C(O)C3O)C(O)C2O)C=CC1.[Na+].[Na+] (stereo not given) is reported with logP -1.96 (via eChemPortal).
CC(CO)Oc1ccccc1 (stereo not given) is reported with logP 1.52 (via OCHEM).
C=C(C)CCO is reported with logP 0.89 (via eChemPortal).
O=S(=O)([O-])CCCS.[Na+] is reported with logP -2.94 (via eChemPortal).
COc1ccc2c(c1)C(=O)N(CCc1ccc(S(N)(=O)=O)cc1)C(=O)C2(C)C is reported with logP 2.5 (via eChemPortal).
CC(=O)N1CCC[C@H]1C(=N)O is reported with logP -1.34 (via OCHEM).
CC(C)COC(=O)C(C)C is reported with logP 3.17 (via eChemPortal).
C=COCCOCCOC=C is reported with logP 1.8 (via eChemPortal).
CCC(C)n1ncn(-c2ccc(N3CCN(c4ccc(O)cc4)CC3)cc2)c1=O (stereo not given) is reported with logP 2.5 (via eChemPortal).
Cn1c(=O)c2c(ncn2CC(O)CO)n(C)c1=O (stereo not given) is reported with logP -1.9 (via PubChem).
Cc1c(Br)c(Br)c(Br)c(Br)c1Br is reported with logP 5.43 (via OCHEM).
CCOCCOCCOC(=O)C1CCC(C(=O)OCCOCCOCC)CC1 (stereo not given) is reported with logP 2.5 (via eChemPortal).
O=c1c2cc3[nH]c4c(Cl)cccc4c(=O)c3cc2[nH]c2c(Cl)cccc12 is reported with logP 1.52 (via eChemPortal).
O=[N+]([O-])c1cc(S(=O)(=O)[O-])ccc1Cl.[Na+] is reported with logP -2.49 (via eChemPortal).
Brc1c(Br)c(Br)c(-c2c(Br)c(Br)c(Br)c(Br)c2Br)c(Br)c1Br is reported with logP 8.58 (via PubChem).
CCN(CC)c1ccc(/C=C(\C#N)C(=O)OCCC[N+](C)(C)CCOC(=O)/C(C#N)=C/c2ccc(N(CC)CC)cc2)cc1.[Cl-] is reported with logP 1.592 (via eChemPortal).
C[S+](C)CCC(N)C(=O)O.[Cl-] is reported with logP 0.28 (via OCHEM).
CC(=O)[O-].CCN(CCO)c1ccc(/N=N/c2sc3cc(OC)ccc3[n+]2C)cc1 is reported with logP 1.297 (via eChemPortal).
CCCCCCCC/C=C\CCCCCCCC[N+](C)(CCO)CCO.[Cl-] is reported with logP 2.41 (via eChemPortal).
NCCCCCCN.O=C(O)CCCCC(=O)O is reported with logP -4.4 (via eChemPortal).
O=C(O)c1cc(C(=O)O)cc(S(=O)(=O)[O-])c1.[Na+] is reported with logP -1.7 (via eChemPortal).
N#[N+]c1ccc(Nc2ccccc2)cc1.O=S(=O)([O-])O is reported with logP 1.28 (via eChemPortal).
N=c1nc2c(ncn2C2CC(O)C(CO)O2)c(N)[nH]1 (stereo not given) is reported with logP -0.52 (via OCHEM).
Nc1cc(S(=O)(=O)[O-])cc2cc(S(=O)(=O)[O-])c(/N=N/c3ccc(-c4ccc(/N=N/c5c(S(=O)(=O)[O-])cc6cc(S(=O)(=O)[O-])cc(N)c6c5[O-])c([O-])c4)cc3[O-])c([O-])c12.[Cu+2].[Cu+2].[Na+].[Na+].[Na+].[Na+] is reported with logP -0.77 (via eChemPortal).
CCC(=O)OCC[N+](C)(C)C.[I-] is reported with logP -2.96 (via OCHEM).
CCC(=O)Nc1cccc(Nc2cc(S(=O)(=O)[O-])c(N)c3c2C(=O)c2ccccc2C3=O)c1.[Na+] is reported with logP 0.744 (via eChemPortal).
Cc1ccc(/N=N/c2c(O)c(C(=O)[O-])cc3ccccc23)c(S(=O)(=O)[O-])c1.[Sr+2] is reported with logP -0.61 (via eChemPortal).
Cc1ccccc1NC(=N)Nc1ccccc1C is reported with logP 2.9 (via eChemPortal).
O=P1(CC(c2ccccc2)P2(=O)Oc3ccccc3-c3ccccc32)Oc2ccccc2-c2ccccc21 (stereo not given) is reported with logP 2.3 (via eChemPortal).
Cn1c(N)cc2ccccc21 is reported with logP 1.72 (via OCHEM).
OCC[S-].[Na+] is reported with logP -4.94 (via eChemPortal).
CC1=NN(c2ccc(S(=O)(=O)[O-])cc2)C(=O)C1/N=N/c1cc([N+](=O)[O-])cc(Cl)c1O.[Na+] (stereo partly drawn) is reported with logP -5.5 (via eChemPortal).
Nc1ccn([C@@H]2O[C@H](COP(=O)(O)O)[C@@H](O)[C@H]2O)c(=O)n1 is reported with logP -3.51 (via eChemPortal).
c1cnn2cccc2c1 is reported with logP 1.82 (via OCHEM).
Cc1cc(N)c([N+](=O)[O-])cc1C is reported with logP 2.07 (via OCHEM).
OC(=NCCN1CCN2Cc3[nH]c4ccccc4c3CC2C1)c1ccccc1 (stereo not given) is reported with logP 1.52 (via OCHEM).
O=S(=O)([O-])CCC[n+]1ccccc1 is reported with logP -2.78 (via eChemPortal).
C1=CCCC1 is reported with logP 2.47 (via eChemPortal).

The first 3 entries again:

SMILES	logP	via
CC(=O)OCC[N+](C)(C)C.[Br-]	-3.61	OCHEM
CC(C)(C)c1ccc(C2=C3C(=O)NC(c4ccc(C(C)(C)C)cc4)=C3C(=O)N2)cc1	5	eChemPortal
Clc1ccc2cncnc2c1	1.74	OCHEM